The experiment concerns the target T1, S33E/S37A β-catenin peptide binding to β-TrCP (Homo sapiens, UniProt P35222+Q9Y297, S33E/S37A).
T1 construct: titrating BODIPY-FL-labeled β-catenin peptides (residues 17-48) against 300 pM β-TrCP; 6xHis-SMT3 (N, cleaved yes); made in house; host or cells: E. coli (co-expressed with BirA)
Nature of the experiment: TR-FRET binding enhancement assay, S33E/S37A peptide. As to conditions: 1% binding saturation. The procedure: Compounds were incubated in a 20 μl reaction volume with 300 pM biotinylated β-TrCP/Skp1 preincubated with 1.2 nM terbium-coupled streptavidin (Cisbio) and BODIPY-FL labeled β-catenin peptides (see figure legends for peptide details) in a white 384-well microplate (Perkin Elmer ProxiPlate), using a PBS buffer containing 0.01% Triton X-100 and 2 mM DTT with 2% final DMSO. […] Following 1-h incubation, plates were read for TR-FRET signal after excitation at 320 nm and read at 520 and 620 nm using an EnVision plate reader (Perkin Elmer). TR-FRET signal was calculated using a 520/620 nm ratio. Binding and enhancement data were fit to a standard Hill equation (Y = Bmin + (Bmax − Bmin)(X^h)/(X^h + EC50^h)) in Prism (GraphPad). Errors are standard error of the fit.
On the technique in general: In TR-FRET formats the signal depends on donor and acceptor labels being close together.

Chains of the proteins cited; added tags and fusions are not shown. Residues count along the entry.
UniProt P35222, 17-48 S33E/S37A limits assumed: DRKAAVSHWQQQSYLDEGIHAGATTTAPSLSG
UniProt Q9Y297, 1-569 isoform Q9Y297-2, stated change not applied: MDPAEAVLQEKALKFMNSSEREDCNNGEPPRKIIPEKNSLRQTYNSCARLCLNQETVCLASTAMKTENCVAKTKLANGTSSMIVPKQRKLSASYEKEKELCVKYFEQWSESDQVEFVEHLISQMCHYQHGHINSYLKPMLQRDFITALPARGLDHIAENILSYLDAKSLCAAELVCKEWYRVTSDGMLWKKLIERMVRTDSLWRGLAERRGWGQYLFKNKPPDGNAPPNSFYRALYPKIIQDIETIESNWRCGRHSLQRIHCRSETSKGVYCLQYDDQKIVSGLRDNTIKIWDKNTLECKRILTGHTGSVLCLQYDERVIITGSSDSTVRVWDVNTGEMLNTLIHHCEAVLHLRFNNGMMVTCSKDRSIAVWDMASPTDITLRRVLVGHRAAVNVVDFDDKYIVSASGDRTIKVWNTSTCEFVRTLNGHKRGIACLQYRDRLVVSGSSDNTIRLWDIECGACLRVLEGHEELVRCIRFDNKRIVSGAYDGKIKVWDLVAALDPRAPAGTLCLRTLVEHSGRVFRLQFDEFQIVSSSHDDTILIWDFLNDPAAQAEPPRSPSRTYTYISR

The term EC50 denotes the midpoint of the concentration-response curve.

As to `COc1cc2c(cc1OC)CN(C(=O)c1c(Sc3c(Cl)cccc3Cl)cc(C(F)(F)F)[nH]c1=O)C2` [NRX-252262], the EC50 was found to be 530 ± 20 nM.

The record behind these values is PMC6441019, “Prospective discovery of small molecule enhancers of an E3 ligase-substrate interaction” (Nature Communications, 2019).
